Where two headings read alike, the source gives them in different places.
Key:
[1] = test system: mouse; assay type: in vivo
[2] = test system: rat; assay type: in vivo

Vitamin E
LD50 ([1]; i.v.): > 2100 mg/kg | LD50 ([1]; p.o.): > 50,000 mg/kg | LD50 ([2]; i.v.): > 1500 mg/kg | LD50 ([2]; p.o.): > 5000 mg/kg

Source: patent publication US5569670A, “Combination medications containing alpha-lipoic acid and related” (Asta Medica Aktiengesellschaft, priority 1992, dated 1996)
